Laboratory results from US20240115662A1, “METHODS OF TREATING HYPOGONADOTROPIC HYPOGONADISM AND COGNITION IMPAIRMENT FOLLOWING A TRAUMATIC BRAIN INJURY” (WISCONSIN ALUMNI RESEARCH FOUNDATION, priority 2021, published 2024).

How the values were obtained:
[1] = system: male Sprague Dawley rats with craniectomy or controlled cortical impact (CCI) injury; assay: Plasma steroid concentrations after craniectomy (Sham) or CCI injury, hCG with or without RU-486; assay type: in vivo, rat
Protocol: Male Sprague Dawley (SD) rats (n=58, 5-6-months old) were acquired from Harlan Laboratories Inc. (Madison, WI) and acclimated to the environment over 2 days. Rats were then weighed and handled for no less than 5 min each for 5 consecutive days and daily thereafter while being housed, fed and maintained on a 12-hour reverse light/dark cycle. The Institutional Animal Care and Use Committee (Animal Component of Research Protocol) at the William S. Middleton Veterans Administration Hospital approved the procedures used in this study and the research was conducted in an AAALAC-approved facility. Experimenters were blinded as to the identity of the animals throughout injections, blood collections, and body weight and hormone data analyses.
All surgical procedures were carried out under isoflurane gas anesthesia (5% for induction; 1.5-3.0% for maintenance, craniectomy ˜15-30 min duration; craniectomy+CCI injury ˜25-45 min duration). An anesthesia chamber was used for induction and a nose cone was used for maintenance.
Anesthetized rats were mounted in a Kopf stereotaxic device (Model 900; Tujunga, CA), where the animal's head was held in place by non-traumatic ear bars and a bite bar. Anesthesia was maintained by nose cone while the head was shaved and sterilized with 70% ethanol and Betadine™ (Purdue Products L.P., Stamford, CT) antiseptic solution. Throughout surgery anesthesia levels were monitored closely and were frequently adjusted as need, based on heart rate, respiration rate and oxygen saturation. A homeothermic blanket control unit (Harvard Apparatus, Holliston, MA) was used to monitor body temperature and to prevent hypothermia throughout surgery.
Under aseptic conditions, the cranium and its bony landmarks including bregma (β) and lambda (λ) were exposed by making a midline incision along the scalp into the skin and fascia covering the skull. A 6 mm diameter craniectomy was centered on the midline at 2.5 mm anterior to β. The cortical impact was made at 2.5 mm anterior to β over the midline of the medial frontal cortex with an Impact One™ Stereotaxic CCI instrument (Leica, Buffalo Grove, IL), using a 5 mm impactor (bit size), traveling at 2.25 m/s (velocity), extending 3 mm below the cortical surface (impact depth) for 100 ms (dwell time). Sham-injured groups received the same surgical procedures up to and including craniectomy but no CCI injury. After surgery, the rats were placed on a heating pad, monitored closely and upon awakening were tested 30 min later for righting reflex to assess any immediate effects of craniectomy or CCI injury on righting ability, and then returned to their home cages.
Experiment 1: Rats were assigned to the following groups: Sham+saline (n=5), Sham+hCG (n=5), CCI+saline (n=8), CCI+hCG (n=8). Baseline blood draws were collected from all animals. Beginning 1-hour after craniectomy or CCI, Pregnyl® (hCG, 400 IU/kg; Merck & Co., Inc., Whitehouse Station, NJ) or saline (0.9% NaCl in deionized H2O; equivalent volume to that injected for hCG) was injected intramuscularly every other day for 29 days. Pregnyl® is a highly purified pyrogen-free preparation obtained from the urine of pregnant females. Each vial contains 10,000 USP units of sterile dried powder with 5 mg monobasic sodium phosphate and 4.4 mg dibasic sodium phosphate that is diluted in solvent containing water, 0.56% sodium chloride and 0.9% benzyl alcohol (www.drugs.com/pro/pregnyl.html).
Experiment 2: Rats were assigned to the following groups: Sham+saline+RU-486 (n=5), Sham+hCG+RU-486 (n=5), CCI+saline+RU-486 (n=5), or CCI+hCG+RU-486 (n=5). RU-486 (Mifepristone, 100 mg/mL solution, CAS Number 84371-65-3; 40 mg/kg in 100% ethanol; Sigma-Aldrich Corp., St. Louis, MO,) was injected intraperitoneallyl 5-20 min before every hCG or saline control injection.
Rats were anesthetized (between 9:00 a.m.-12:00 noon) and their tails placed in a 200 mL beaker filled with warm water (≤44° C.) for 5 min. […]

[2] = system: adult male rats with CCI injury; assay: Morris water maze spatial learning and memory after CCI; assay type: in vivo, rat
Description: Therefore, hCG reduced the detrimental effects of CCI on latency to reach the platform. […] Re-Acquisition Phase:_Sham/NSCon groups quickly learned the new location of the hidden platform, and while this learning was severely compromised in the CCI vehicle group, hCG enabled better learning of the new location of the hidden platform in CCI animals (n=9-12/group; p<0.05; a, b=differences between groups during acquisition phase; c, d=differences between groups during re-acquisition phase; e=differences within groups between the acquisition (PID10) and re-acquisition phases (PID20)).
To test the effects of hCG on cognitive and motor recovery, 69 adult male rats (5-month of age) with CCI injury (group size, n=31), sham surgery (n=24) or non-surgical control (NSCon; n=14) were immediately administered saline (n=32) or hCG (200 mIU/kg/2 days n=37) over 28 d. On PID 2, 6, 9, 13 and 23, all rats were tested for vestibulomotor performance (Rotarod) and on PID 6-10 and 20-22 the same rats were tested for learning and memory (Morris water maze (MWM)), respectively. Probe Test 1 and 2 (i.e., swimming in tank for 60 s without MWM platform) were conducted on PID 12 and 24. At the end of behavioral testing, rat brains were collected, digitally imaged and analyzed for gross lesion size (% of whole brain surface area). Note that there was considerable overlap between NSCon and Sham groups (see small standard deviations for the data) and are therefore presented as one group.
To test spatial learning and memory, rats were trained in Morris water maze performance and the latency to reach a hidden platform was recorded over 5 days (Acquisition Phase), and later, spatial memory was tested by moving the platform to a novel location (Re-acquisition Phase). We found no difference between groups in latency to reach the platform on day 1 (PID6) of the acquisition Phase (p>0.05, FIG. 9). By day 5 (PID10) of the acquisition Phase, Sham/NSCon animals treated with vehicle or hCG were fastest to find the hidden MWM platform (8.6±1.2 s to 10.4±2.1 s). […] Ten days after the acquisition phase (PID20) the platform was moved from the NE to the SE quadrant (novel platform placement; NPP) and rats were tested for 3 days (re-acquisition phase).
At the end of each acquisition phase, the platform was removed and 48 h later the animals were tested in the MWM for quadrant preferences over 60 s to determine if they remembered the location of the hidden platform (Probe test 1; NE quadrant). […] Similar to Probe test 1, 48 h after completing the re-acquisition phase the platform was removed and the animals were tested for quadrant preferences (Probe test 2). […] The probe tests indicate that immediate and chronic hCG promotes medium-term memory more so than long-term memory.

In the case of “hCG: heterodimeric glycoprotein hormone (α SEQ ID NO:1, β SEQ ID NO:2); given to the rats as Pregnyl”, the “effect on circulating corticosterone” value ([1]; CCI animals, PID 1 and 11) is reported as “did increase circulating corticosterone”, the “plasma P4 concentration” value ([1]; CCI injured animals without RU-486, PID 1) is reported as 24.2 ± 5.8 ng/mL and the “plasma T concentration” value ([1]; CCI injured animals without RU-486, PID 11) is reported as 12.9 ± 4.3 ng/mL. For the same substance, the “plasma T concentration” value ([1]; CCI injured animals without RU-486, PID 19) was 9.7 ± 1.4 ng/mL, the plasma androstenedione concentration ([1]; CCI+hCG group, PID 11, hCG 400 IU/kg every other day) was 4.5 ± 2.1 ng/mL and the “effect on corticosterone concentrations” value ([1]; Sham animals, any time point) was “had no effect on increasing corticosterone concentrations”. For the same substance, the “effect on circulating concentrations of T and P4” value ([1]; Sham surgery or CCI group, by PSD/PID 1) was “significantly increased circulating concentrations of T and P4 back to baseline concentrations”, the “duration of elevation in T” value ([1]; Sham surgery or CCI group, hCG every other day) was “elevations in T were maintained through PSD/PID 29” and the “circulating 11-DOC” value ([1]; Sham+hCG, PID 1, no RU-486) was 123.1 ± 24.6 ng/mL. The “plasma P4 concentration” value ([1]; Sham+hCG, PID 29, no RU-486) was 31.8 ± 14.2 ng/mL, the “time spent in NE quadrant, Probe test 1” value ([2]; CCI animals, 60 s test, chance 15 s) was 24.5 ± 1.2 s and the “MWM latency to find hidden platform” value ([2]; CCI animals, day 5 (PID10) of acquisition phase) was 17.3 ± 3.6 s. For the same substance, the “MWM latency to find hidden platform” value ([2]; CCI animals, re-acquisition phase, PID22) was 20.0 ± 2.8 s, the “accumulated time spent in both platform associated quadrants, Probe test 2” value ([2]; CCI animals, chance ~30 s) was 36.6 ± 2.5 s and the “time spent in SE quadrant, Probe test 2” value ([2]; CCI animals, platform placement 2 days prior) was “significantly increased time spent in the newer SE quadrant”. The “time spent in NE quadrant, Probe test 2” value ([2]; CCI animals, platform placement 12 days prior) was “not in the older NE quadrant”, the “time spent in SE quadrant, Probe test 2” value ([2]; Sham/NSCon animals) was “small, but significant decrease in time spent in the SE quadrant” and the “MWM latency to find hidden platform” value ([2]; Sham/NSCon animals, end of acquisition phase) was 10.4 ± 2.1 s. The “MWM latency to find hidden platform” value ([2]; Sham/NSCon animals, re-acquisition phase after NPP) was 10.9 ± 1.3 s.
